For the experiment, the target named is T1, SeviL (Mytilisepta virgata, UniProt A0A646QV53).
T1 construct: This vector directs expression of full-length SeviL carrying a thrombin-cleavable hexa-histidine tag; hexa-histidine tag (thrombin-cleavable; leaves residual GSH before the native Met) (N, cleaved yes); made in house; host or cells: E. coli BL21(DE3)
Kind of experiment: biochemical. In kind it is binding. The protocol: Experimental details are given in Methods/Isothermal Titration Calorimetry. […] ITC experiments were repeated with the monomer mutant SeviL (Q12R/F126K). […] Errors in Kd for the native protein and monomer were determined from triplicate experiments. To produce a stronger signal and lower noise, further experiments were attempted with the concentrations of the native protein and ligand increased ten-fold. […] Different stereo views of the interaction between protein and ligand are shown in SFigure 11.
Figure 5 (A) A thermogram produced by injecting 1 mM asialo-GM1 saccharide into 50 μ M SeviL. The experiment was repeated three times, each thermogram being fitted to a one-site model (shown as a black line). Dissociation constants were calculated as weighted averages, and errors were calculated as weighted standard deviations, using the reciprocal chi-square values of each individual fit as weights.
Experiments were performed using a MicroCal iTC200 (GE) instrument. […] The data were analysed using the manufacturer’s software, assuming a simple single site model, to yield a Kd value and chi-square value from each experiment. […] Asialo-GM1 and GM1b were used at 1 mM concentration, each experiment being repeated three times, and errors were determined as the weighted standard deviation of these three values. […]

By UniProt entry, the sequences of proteins in these tests, tags left out. Where a name states a change or a piece, a line headed by the entry shows the natural chain unless it says otherwise.
UniProt A0A646QV53: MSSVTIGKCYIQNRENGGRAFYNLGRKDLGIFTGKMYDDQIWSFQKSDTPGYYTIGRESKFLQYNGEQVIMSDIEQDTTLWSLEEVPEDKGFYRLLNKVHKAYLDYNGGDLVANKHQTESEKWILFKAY

In general, Kd refers to the equilibrium constant for the complex coming apart. Read a high Kd as lower affinity.

`O=C[C@H](O)[C@@H](O)[C@@H](O)[C@H](O)CO` [galactose] displayed a Kd of 8 to 12 mM.
